Data as given in patent publication US11608338B2, “Imidazolonylquinolines and the use thereof as ATM kinase inhibitors” (priority 2015, dated 2023).

Assays:
Assay type in all cases: biochemical
mTOR (human) = mTOR (human) (Homo sapiens (Human), UniProt P42345); experiment: mTOR (human) radiometric kinase assay; conditions: ATM versus mTOR
Method: Furthermore, the effect, in particular inhibition, of other kinases and thus the selectivity of the compounds according to the invention can be determined with the aid of the following assay:
mTOR (human) was incubated with 50 mM HEPES pH 7.5, 1 mM EGTA, 0.01% Tween 20, 2 mg/ml of the substrate, 3 mM MnCl2 and [γ-^33P-ATP] (specific activity approximately 500 cpm/pmol, concentration as necessary). The reaction was initiated by addition of MgATP solution. After incubation at room temperature for 40 minutes, the reaction was stopped by addition of 3% phosphoric acid. 10 μl of the reaction solution were then transferred dropwise onto a P30 filtermat and washed three times for 5 min in 75 mM phosphoric acid and once in methanol, dried and evaluated by means of liquid scintillation counting.

PI3K p110β/p85α (human) = PI3K p110β/p85α (human) (Homo sapiens (Human), UniProt P42338); experiment: PI3K p110β/p85α (human), non-radioactive assay (HTRF); conditions: ATM versus PI3Kbeta
Method: PI3K p110β/p85α (Human), Non-Radioactive Assay
(§1) PI3K p110β/p85α (human) was incubated in an assay buffer comprising 10 μM phosphatidylinositol 4,5-bisphosphate and MgATP (concentration as necessary). The reaction was initiated by addition of MgATP solution. After an incubation time of 30 min at room temperature, the reaction was stopped by addition of a solution consisting of EDTA and biotinylated phosphatidylinositol 3,4,5-trisphosphate. Finally, the detection buffer, consisting of a europium-labelled anti-GST monoclonal antibody, a GST-labelled GRP1 PH domain and streptavidin allophycocyanin, was added. The plate was read out via homogeneous time-resolved fluorescence (HTRF) and the corresponding signals were evaluated via the formula HTRF=10000×(Em665 nm/Em620 nm).

PI3K p110δ/p85α (human) = PI3K p110δ/p85α (human) (Homo sapiens (Human), UniProt O00329); experiment: PI3K p110δ/p85α (human), non-radioactive assay (HTRF); conditions: ATM versus PI3Kdelta
Method: PI3K p110δ/p85α (Human), Non-Radioactive Assay
as §1, with “p110δ/p85α” for “p110β/p85α”

PI3K p110α/p85α (human) = PI3K p110α/p85α (human) (Homo sapiens (Human), UniProt P42336); experiment: PI3K p110α/p85α (human), non-radioactive assay (HTRF); conditions: ATM versus PI3Kalpha
Method: PI3K p110α/p85α (Human), Non-Radioactive Assay
as §1, with “p110α/p85α” for “p110β/p85α”, “After” for “After an”, “incubation” for “incubation time of 30 min”, “temperature for 40 minutes,” for “temperature,”

PI3K (p120γ) (human) = PI3K (p120γ) (human) (Homo sapiens (Human), UniProt P48736); experiment: PI3K (p120γ) (human), non-radioactive assay (HTRF); conditions: ATM versus PI3Kgamma
Method: PI3K (p120γ) (Human), Non-Radioactive Assay
as §1, with “(p120γ)” for “p110β/p85α”, “nm). • MgATP=magnesium 5′-O-[hydroxy({[(hydroxyphosphinato)oxy]phosphinato}oxy)phosphoryl]adenosine • MgCl2=magnesium dichloride • EGTA=ethylene glycol bis(aminoethyl ether) N,N,N′,N′-tetraacetic acid • Tween 20=polysorbate 20 Medicament/Pharmaceutical Composition” for “nm).”

## COc1cc2ncc3c(c2cc1-c1cnn(CF)c1)n(-c1c(F)cncc1OC)c(=O)n3C [Example 140, 1-(3-Fluoro-5-methoxy-pyridin-4-yl)-8-(1-fluoro-methyl-1H-pyrazol-4-yl)-7-methoxy-3-methyl-1,3-dihydroimidazo[4,5-c]-quinolin-2-one]
mTOR (human)
  ratio IC50 (ATM):IC50 (mTOR), selectivity with respect to mTOR: at least 2000 times
PI3K p110β/p85α (human)
  ratio IC50 (ATM):IC50 (PI3Kbeta), selectivity with respect to PI3Kbeta: at least 2000 times

## COc1cnc(-n2c(=O)n(C)c3cnc4cc(OC)c(-c5cnn(C)c5)cc4c32)c(F)c1 [Example 105, 1-(3-Fluoro-5-methoxy-pyridin-2-yl)-7-methoxy-3-methyl-8-(1-methyl-1H-pyrazol-4-yl)-1,3-dihydro-imidazo[4,5-c]quinolin-2-one]
PI3K p110δ/p85α (human)
  ratio of IC50 (ATM) and IC50 (PI3Kdelta), selectivity with respect to PI3Kdelta: at least 2000 times
PI3K p110α/p85α (human)
  ratio of IC50 (ATM) and IC50 (PI3Kalpha), selectivity with respect to PI3Kalpha: at least 2000 times
PI3K (p120γ) (human)
  ratio of IC50 (ATM) and IC50 (PI3Kgamma), selectivity with respect to PI3Kgamma: at least 2000 times

## COc1cc2ncc3c(c2cc1-c1cnn(C)c1)n(-c1ncc(OCF)cc1F)c(=O)n3C [Example 110, 1-(3-Fluoro-5-fluoro-methoxypyridin-2-yl)-7-methoxy-3-methyl-8-(1-methyl-1H-pyrazol-4-yl)-1,3-dihydroimidazo[4,5-c]-quinolin-2-one]
PI3K p110δ/p85α (human)
  ratio of IC50 (ATM) and IC50 (PI3Kdelta), selectivity with respect to PI3Kdelta: at least 2000 times
PI3K p110α/p85α (human)
  ratio of IC50 (ATM) and IC50 (PI3Kalpha), selectivity with respect to PI3Kalpha: at least 2000 times
PI3K (p120γ) (human)
  ratio of IC50 (ATM) and IC50 (PI3Kgamma), selectivity with respect to PI3Kgamma: at least 2000 times

## COc1cc2ncc3c(c2cc1-c1cn(C)nc1C)n(-c1c(F)cncc1OCF)c(=O)n3C [Example 149, 8-(1,3-Dimethyl-1H-pyrazol-4-yl)-1-(3-fluoro-5-fluoro-methoxypyridin-4-yl)-7-methoxy-3-methyl-1,3-dihydroimidazo[4,5-c]-quinolin-2-one]
mTOR (human)
  ratio IC50 (ATM):IC50 (mTOR), selectivity with respect to mTOR: at least 2000 times
PI3K (p120γ) (human)
  ratio of IC50 (ATM) and IC50 (PI3Kgamma), selectivity with respect to PI3Kgamma: at least 2000 times
PI3K p110β/p85α (human)
  ratio IC50 (ATM):IC50 (PI3Kbeta), selectivity with respect to PI3Kbeta: at least 2000 times

## [2H]C([2H])([2H])Oc1cnc(-n2c(=O)n(C)c3cnc4cc(OC)c(-c5cnn(C)c5)cc4c32)c(F)c1 [Example 155, 1-[3-Fluoro-5-(trideuterio-methoxy)-2-pyridyl]-7-methoxy-3-methyl-8-(1-methylpyrazol-4-yl) imidazo-[4,5-c]quinolin-2-one]
PI3K p110δ/p85α (human)
  ratio of IC50 (ATM) and IC50 (PI3Kdelta), selectivity with respect to PI3Kdelta: at least 2000 times
PI3K p110α/p85α (human)
  ratio of IC50 (ATM) and IC50 (PI3Kalpha), selectivity with respect to PI3Kalpha: at least 2000 times
PI3K (p120γ) (human)
  ratio of IC50 (ATM) and IC50 (PI3Kgamma), selectivity with respect to PI3Kgamma: at least 2000 times
